Reference: PMC11057141, “Untangling the mess of CGRP levels as a migraine biomarker: an in-depth literature review and analysis of our experimental experience” (The Journal of Headache and Pain, 2024)

How the values were obtained:
[1] = Long-term storage of serum at -80°C, sandwich ELISA; format: in vitro ADME; details: human serum, ELISA Abbexa (alpha) / CUSABIO (beta), mean ± SD
Experimental: We tested 4 different ELISA kit references with serum samples, 2 based on competitive ELISA (Biorbyt, UK, ref: orb438605; BMA Biomedicals, Switzerland, ref: S-1198), specifically designed for the detection of total-CGRP, and 2 based on ELISA sandwich (Abbexa, UK, ref: abx257902; CUSABIO, China, ref: CSB-E08210h), designed for the detection of alpha and beta-CGRP, respectively. All 4 of these products were assayed multiple times (at least 4 for each kit reference) to analyse the optimal dilutions of the samples, their reproducibility and their reported concentrations. All the procedures were carried out strictly following the manufacturer’s instructions of use of their products, they were performed by the same researcher, using the same equipment, and in the same facilities. Regarding the last step of the ELISA processes, in which manufacturers give a window of time, specifying that the user must determine the optimum, we incubated the substrate for 15 min for alpha-CGRP and for 20 min for beta-CGRP. All the samples were measured in duplicate, obtained from morning blood extractions, 9–12 am, from patients in a fast of at least 12h. […] A standard curve was generated for every single batch, and they were calculated using a 4-parameter logistic (4-PL) regression with r^2 > 0.999. […]

[2] = Influence of sample processing time: serum kept at 4°C before freezing at -80°C, sandwich ELISA; format: in vitro ADME; details: human serum, no peptidase inhibitor, ELISA Abbexa (alpha) / CUSABIO (beta), mean ± SD, 6 subjects, triplicate
Experimental: We tested 4 different ELISA kit references with serum samples, 2 based on competitive ELISA (Biorbyt, UK, ref: orb438605; BMA Biomedicals, Switzerland, ref: S-1198), specifically designed for the detection of total-CGRP, and 2 based on ELISA sandwich (Abbexa, UK, ref: abx257902; CUSABIO, China, ref: CSB-E08210h), designed for the detection of alpha and beta-CGRP, respectively. All 4 of these products were assayed multiple times (at least 4 for each kit reference) to analyse the optimal dilutions of the samples, their reproducibility and their reported concentrations. All the procedures were carried out strictly following the manufacturer’s instructions of use of their products, they were performed by the same researcher, using the same equipment, and in the same facilities. Regarding the last step of the ELISA processes, in which manufacturers give a window of time, specifying that the user must determine the optimum, we incubated the substrate for 15 min for alpha-CGRP and for 20 min for beta-CGRP. All the samples were measured in duplicate, obtained from morning blood extractions, 9–12 am, from patients in a fast of at least 12h. These samples were let to clot for 10–15 min, centrifuged at 3500 rpm for 10 min and then immediately stored at -80°C until assayed. A standard curve was generated for every single batch, and they were calculated using a 4-parameter logistic (4-PL) regression with r^2 > 0.999.
We recruited 6 individuals without history of migraine and subjective absence of headache at the day of the sampling (50% male; age range: 24–65 years). […] The blood was then let to clot for 10 min at room temperature, then centrifuged at 3500 rpm for 10 min to obtain serum. Serum was divided into 4 tubes. First one was immediately stored at -80°C, the other three were kept in the refrigerator at 4°C for, 2, 4 and 24 h respectively before frozen. None of the samples were added peptidase inhibitor. These samples were measured by triplicate.

## alpha-CGRP: endogenous neuropeptide, result of alternative splicing of the calcitonin gene (CALCA) transcript, 37 amino acids
[1]; 11 samples
  serum concentration, measured before one month of storage at -80°C: 0.0423 ± 0.0151 ng/mL
[1]; same 11 samples, p < 0.01 vs first measurement
  serum concentration after more than 6 months of storage at -80°C: 0.0286 ± 0.0113 ng/mL
[2]; 2 h at 4°C before -80°C
  serum concentration after 2 h at 4°C: 0.0299 ± 0.0186 ng/mL
[2]; 4 h at 4°C before -80°C
  serum concentration after 4 h at 4°C: 0.0304 ± 0.0182 ng/mL
[2]; 24 h at 4°C before -80°C
  serum concentration after 24 h at 4°C: 0.0302 ± 0.0196 ng/mL
[2]; clot 10 min RT, 3500 rpm 10 min, immediately -80°C
  serum concentration, deep frozen right away: 0.0292 ± 0.0206 ng/mL
